According to patent publication US12168763B2, “Microorganisms and methods for reducing bacterial contamination” (Melio Peptide Systems Inc., priority 2020, dated 2024):

Experiments:
[1] = tested on: Lactic acid bacteria (LAB); assay: Soft-agar overlay assay of pediocin triple variants (indicator strain not stated)
L. fermentum CCUG 72619 = type: cell-based, Lactobacillus fermentum

| Substance | Antibacterial activity compared to pediocin double variant K1A/T22A [1] | Lactic and acetic acid levels (L. fermentum CCUG 72619) |
| --- | --- | --- |
| Engineered pediocin PA-1 with [listing 1 of 3 here] | None of the pediocin triple variants appeared to further increase activity | – |
| virginiamycin | – | significantly lower |
| Engineered pediocin PA-1 with [listing 2 of 3 here] | None of the pediocin triple variants appeared to further increase activity | – |
| Engineered pediocin PA-1 with [listing 3 of 3 here] | None of the pediocin triple variants appeared to further increase activity | – |
